# AlphaSeq binding of Ab-14 heavy chain variants to a spike HR2 peptide

Target peptide (SARS-CoV-2 spike, HR2 region): PDVDLGDISGINAS

Parent scFv Ab-14: VH joined to VL by a (GGGGS)3 linker. Changes lie in the heavy chain CDRs alone.
VH: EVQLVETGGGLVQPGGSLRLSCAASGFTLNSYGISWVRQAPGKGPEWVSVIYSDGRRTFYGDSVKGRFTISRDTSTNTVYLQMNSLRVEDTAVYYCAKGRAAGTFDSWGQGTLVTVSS
VL: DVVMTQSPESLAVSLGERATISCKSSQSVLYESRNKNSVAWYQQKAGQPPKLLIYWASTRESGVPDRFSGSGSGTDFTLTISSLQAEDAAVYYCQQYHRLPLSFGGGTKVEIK

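Phage display of a naive human antibody library on the peptide gave the parent. The variants were designed computationally from a first round of random CDR variants and then made and measured. Group labels follow the data file (Ctrl: baseline library sampled from a position-specific scoring matrix, with some repeated check sequences; Rand: our label for a block that the file lists under HC and that is probably the random mutants of the ten best first-round binders; En: ensemble of fine-tuned language models; GP: Gaussian process model; GPLM: also part of the Gaussian process libraries; HC: hill climbing; Gen: genetic algorithm; Gibbs: Gibbs sampling; a sequence that several methods proposed may carry one label only). The assay is AlphaSeq: two haploid yeast populations carry antibody and antigen on their surface. Mating (16 h, 30 °C) was followed by selection of diploids and sequencing of their barcodes. A regression on co-assayed BCL2-family reference pairs converts the normalised counts of each replicate to an apparent Kd. Each pool was mated in six replicate cultures.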

Variants are written as CDR1, CDR2 and CDR3 of the heavy chain (limits as in the source). Parent: GFTLNSYGIS, VIYSDGRRTFYGDSVK, GRAAGTFDS.
Numbers give log10(Kd / nM), so 0 is 1 nM and 3 is 1 µM. Smaller is tighter.
Averages over replicates are reported, and they cover detected replicates only.
A pair that was not seen in that replicate is written "nd"; this usually means weak binding, but a binder can also be missed.
The authors' rule: three or more of the six replicates give a measured affinity, fewer mean a poor binder.
Values of this round are not directly comparable with the first-round values of the same sequences.
Of ten entries with the parent sequence, four were seen in most replicates (averages 0.34 to 2.37), three in one and three in none, so single entries are noisy.
Three control strains display no target. For all heavy chain designs, 1% of the pairings with them gave a signal, with a median of 2.08 and one signal in twenty below 0.84, so weak values seen in few replicates may be background.
Where one sequence has several entries in the source, the replicates are listed entry by entry, parted by semicolons.

CDR-H1	CDR-H2	CDR-H3	group	log10 Kd (nM) by replicate	mean, log10 nM
GFTLDEYGIS	VIYADGQRTAYTDDVK	GQYGGIGYG	En_Gibbs	nd / nd / nd / nd / nd / nd	nd
GFDLNEYGIS	VIYADGVRTFYADSVK	GEAGGTFDV	En_HC	0.34 / 0.34 / 0.13 / 0.09 / 0.35 / 0.23	0.25
GFTLNEYGIS	VIYSDGRRTFYGDSVK	GRQAGTFDS	Ctrl+GPLM_Gen	-0.10 / -0.31 / -0.24 / 0.04 / -0.12 / 0.08; 0.30 / 0.08 / 0.02 / 0.32 / 0.06 / 0.30	0.03
GFSLEEYGIS	VIYADGMRTFYTDKVK	GNLDDQEGY	En_Gibbs	nd / nd / nd / nd / nd / nd	nd
GFDLNEYGIS	VIYADGVRTAYADDVK	GENAGTFDQ	En_Gen	-0.59 / -1.42 / -0.56 / -1.50 / -0.59 / -0.87	-0.92
GFTLNDYGIS	VIYSDGRRTFYGDSVK	GKQAGTFDS	GP_HC	0.94 / 0.40 / 0.38 / 0.20 / 0.35 / 0.66	0.49
GFDLEEMGIS	VIYADGSRKVYQDAVK	GGVSGDFDK	En_Gibbs	nd / 2.51 / nd / 2.01 / 1.85 / 1.35	1.93
GFDLNEYGIS	VIYADGRRTFYADSVK	GNQAGTFIS	En_HC	0.88 / 0.84 / 0.34 / 0.65 / 0.36 / 0.65	0.62
GFELNSYGIS	VIYSDGRRTFYSDQVK	GEAAGTFDS	GP_Gen	1.22 / 0.94 / 0.83 / nd / nd / 1.98	1.24
GFTLNSEGIS	VIYSDGRRTFYGDSVK	GRASGTADD	Ctrl	nd / nd / nd / nd / nd / nd	nd
GFDLNSYGIS	VIYSDGKRTFYGDSVK	GRAAGWFNS	Rand	nd / nd / nd / nd / nd / nd	nd
GFDLNSYGIS	VIYSDGGRTFYGDSVK	GRAAGWFNV	Rand	nd / nd / nd / nd / nd / nd	nd
GFSLNTYGIS	VIYSDGRRTFYGDSVK	GQTAGTFDS	GPLM_Gibbs	0.77 / 0.50 / 0.89 / 0.40 / 0.50 / 0.58	0.61
GFTLNEYGIS	VIYSDGRPTFYGKSVK	GRAAVTFDQ	Rand	nd / nd / nd / nd / nd / nd	nd
GFDLNSYGIS	VIYSDGRRTFYVDSVK	GLTAGTFDS	GP_Gibbs	-0.08 / 0.34 / 0.27 / 0.24 / 0.23 / 0.23	0.20
GFTLNSYGIS	VIYSDGRRTFYADSVK	GQLAGTFDS	GPLM_Gen	0.39 / 0.52 / 0.55 / 0.13 / 0.65 / 0.70	0.49

The remaining entries, values ahead:

log10 Kd (nM) by replicate	mean, log10 nM	CDR-H1	CDR-H2	CDR-H3	group
nd / nd / nd / nd / nd / nd	nd	GFTLDSYGIS	VIYSDGRRCFYGDSVK	GRAAGTALS	Rand
nd / nd / nd / nd / nd / nd	nd	GFTLNSYGIS	VIYFDGRRTQYGDSVS	GRAAGTFDS	Ctrl
-0.37 / -0.74 / -0.97 / -0.69 / -0.72 / -0.56	-0.68	GFDLNEYGIS	VIYADGRRTFYVDSVK	GNVAGTFNV	En_HC
0.35 / 0.21 / -0.10 / 0.24 / 0.09 / 0.69	0.24	GFTLNSYGIH	VIYADGRRTFYGDSVK	GEAAGTFDS	Ctrl
1.43 / 0.62 / 0.61 / 0.18 / 1.27 / 1.14	0.88	GFNLNSYGIS	VIYSDGRRTFYGDKVK	GQTAGTFDS	GP_Gibbs
-0.41 / -0.27 / -0.49 / -0.58 / -0.76 / -0.33	-0.47	GFDLNEYGIS	VIYADGRRTFYSDSVK	GTVAGTFDN	En_HC
0.34 / -0.29 / -0.26 / -0.03 / -0.31 / -0.31	-0.14	GFDLNEYGIS	VIYADGRRTFYQDSVK	GEIAGTFDV	En_HC
0.18 / 0.48 / 0.59 / 0.44 / 1.42 / 1.80	0.82	GFDLNSYGIS	VIYSDGRRTFYSDSVK	GAAAGTFDS	GPLM_Gibbs
1.71 / 1.59 / 1.70 / 0.65 / 1.50 / 1.40	1.42	GFNLNTYGIS	VIYSDGRRTFYVDSVK	GQAAGTFDS	GPLM_Gibbs
0.78 / 1.19 / 2.75 / 1.75 / 1.04 / 1.07	1.43	GFTLKEYGIS	VMYSDGRRTAYKDSVK	GRAAGTFDS	Ctrl
nd / nd / nd / nd / nd / nd	nd	GFTLESYGIS	VIYADGRRTFYGDHVK	GRAAGTFHS	GP_HC
-0.45 / -0.48 / -0.64 / -0.91 / -0.54 / -0.67	-0.61	GFDLNEYGIS	VIYADGRRTFYADDVK	GEVAGTFNS	En_HC
-0.27 / -0.38 / -0.44 / -0.73 / -0.33 / -0.28	-0.40	GFDLNEYGIS	VIYADGRRTAYTDSVK	GENAGTFDM	En_Gen
0.92 / 0.76 / 0.19 / 0.40 / 0.45 / 0.93	0.61	GFTLNSYGIS	VIYSDGRRKFYDDSVK	GRLAGTFDS	Ctrl
1.20 / 0.04 / 0.16 / 0.19 / 0.50 / 0.51	0.44	GFSLNSYGIS	VIYSDGHRTFYHDSVK	GRTAGTFDS	GP_Gibbs
nd / nd / 0.89 / nd / nd / nd	0.89	GFTLNSYGIS	VIYSDGRRTFYSDSVK	GRAAYTFDS	Ctrl
-0.45 / -0.52 / -0.66 / -0.45 / -0.48 / -0.36	-0.49	GFDLNEYGIS	VIYADGMRTYYADDVK	GQNAGTFDV	En_Gen

Top 3 of the variants detected in all replicates, tightest first:

CDR-H1	CDR-H2	CDR-H3	group	log10 Kd (nM) by replicate	mean, log10 nM
GFDLNEYGIS	VIYADGVRTAYADDVK	GENAGTFDQ	En_Gen	-0.59 / -1.42 / -0.56 / -1.50 / -0.59 / -0.87	-0.92
GFDLNEYGIS	VIYADGRRTFYVDSVK	GNVAGTFNV	En_HC	-0.37 / -0.74 / -0.97 / -0.69 / -0.72 / -0.56	-0.68
GFDLNEYGIS	VIYADGRRTFYADDVK	GEVAGTFNS	En_HC	-0.45 / -0.48 / -0.64 / -0.91 / -0.54 / -0.67	-0.61

Values reported by Li et al. 2023, doi:10.1038/s41467-023-39022-2 (FLAb copy).